{"sequences": {"note": "By UniProt entry, the sequences of proteins in these tests, tags left out.", "UniProt P21453, whole entry": "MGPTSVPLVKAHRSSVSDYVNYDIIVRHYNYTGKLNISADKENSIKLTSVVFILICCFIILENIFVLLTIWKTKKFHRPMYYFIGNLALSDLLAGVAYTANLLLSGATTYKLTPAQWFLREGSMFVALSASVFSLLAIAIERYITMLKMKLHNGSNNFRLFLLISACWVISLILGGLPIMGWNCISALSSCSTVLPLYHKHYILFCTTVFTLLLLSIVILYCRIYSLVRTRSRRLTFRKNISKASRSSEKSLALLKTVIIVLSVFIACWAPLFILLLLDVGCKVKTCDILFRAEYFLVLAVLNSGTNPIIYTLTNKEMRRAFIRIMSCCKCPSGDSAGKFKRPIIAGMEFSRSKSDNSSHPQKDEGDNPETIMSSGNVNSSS"}, "source": "patent US9181182B2", "about": "“S1P receptors modulators” (Akaal Pharma PTY LTD, priority 2008, dated 2015)", "biological_target": "S1P1 human receptor (Homo sapiens (Human), UniProt P21453)", "experiment": "S1P1 [35S]-GTPgamaS binding assay (agonist activity)", "assay_type": "biochemical", "protocol": "Selected Compounds of the Examples were evaluated at Millipore Corporation, USA, using S1P1 receptor; [^35S]-GTPgamaS binding assay. A [^35S]-GTPgamaS binding assay at Millipore was conducted by GPCR Profiler™ Custom Service Laboratory, Temecula, Calif., Millipore, Inc. to monitor dose-dependent agonist selectivity for selected Examples against the S1P1 receptors. The assay was completed with sample compounds subjected to an eight-point, four-fold dose response curve with starting concentration of 10 μM. Selectivity was determined upon initial addition of compounds followed by a 30 minute incubation at 30° C. Following compound incubation, bounded [^35S]-GTPgamaS was determined by filtration and scintillation counting.\nIndependently, selected compounds were evaluated for S1P1 and S1P3 agonistic activity. The S1P1 assay system was GTPgama-S35 binding in membranes from CHO K1 cells, expressing S1P1 human receptor. The S1P3 assay system was calcium mobilization in CHO K1 cells expressing S1P3 human receptor. There was no significant background response to S1P in the CHO K1 cells with either assay. Compounds were tested initially at a concentration of 10 μM."}
{"substance": "2-Amino-2-((5-(5-3-(1-admantyl)-3-methoxyphenyl)-1,2,4-oxadiazol-3-yl)indolin-1-yl)methyl)propane-1,3-diol [Example 33]", "values": [{"measurement": "EC50", "value": "> 24", "unit": "µM"}]}
